The target of this test is recombinant human GST-Syk (Homo sapiens (Human), UniProt P43405). Put plainly: Homogeneous Time-Resolved Fluorescence (HTRF) assay for the recombinant human Syk enzyme. The test is classed as biochemical. To be noted: recombinant human GST-Syk 5 pM, ATP 25 μM; for IC50: 10-dose titration, read-out: rhSyk (nM) IC50; for pIC50: class symbols, read-out: rhSyk activity (IC50). How it is done: Homogeneous Time-Resolved Fluorescence (HTRF) Assay for the Recombinant Human Syk Enzyme:
A recombinant GST-hSyk fusion protein was used to measure potency of compounds to inhibit human Syk activity. The recombinant human GST-Syk ([…] #08-176) (5 pM final concentration) was incubated with various concentrations of the inhibitor diluted in DMSO (0.1% final concentration) for 10 minutes at room temperature in 15 mM Tris-HCl (pH 7.5), 0.01% tween 20, 2 mM DTT in 384 well plate format. To initiate the reaction the biotinylated substrate peptide (250 nM final concentration) that contains the phosphorylation site for Syk was added with magnesium (5 mM final concentration) and ATP (25 μM final concentration). Final volume of the reaction was 10 μL. Phosphorylation of the peptide was allowed to proceed for 45 minutes at room temperature. To quench the reaction and detect the phosphorylated product, 2 nM of a Europium-anti-phosphotyrosine antibody (Perkin Elmer #AD0161) and 70 nM SA-APC (Perkin-Elmer #CR130-100) were added together in 15 mM Tris pH 7.5, 40 mM EDTA, 0.01% tween 20. Final volume of the quenching solution was 10 μL. The resulting HTRF signal was measured after 30 minutes on an EnVision (Perkin-Elmer) reader using a time-resolved fluorescence protocol. IC50 was determined following 10-dose titration (10 μM to 0.508 nM) and four parameter logistic curve fitting using the Merck Assay Data Analyzer. The rhSyk activity (IC50) is expressed as +++(100 nM or less), ++(between 100 and 1000 nM), +(between 1 and 10 μM). IC50 values are also provided for the following representative compounds: […]
For orientation: TR-FRET usually uses a lanthanide donor and a delayed reading to cut background.

For orientation: IC50 means the midpoint of a concentration-inhibition curve. Usually pIC50 stands for the negative decadic logarithm of the IC50, by convention in mol/L.

pIC50: −log10 of the molar value. Like-named read-outs stand apart in the source and are kept apart here. Some results are limits rather than exact numbers.

In the case of `Cc1cc(Nc2cc(C)c(F)cn2)nc(-c2cnc(C(C)(O)[C@H]3CC[C@H](C(=O)O)CC3)s2)c1` (single isomer, unassigned) [Example 10, trans-4-[(1R or 1S)-1-(5-{6-[(5-fluoro-4-methylpyridine-2-yl)amino]-4-methylpyridine-2-yl}-1,3-thiazol-2-yl)-1-hydroxyethyl]cyclohexanecarboxylic acid], the half-inhibitory concentration (IC50) stood at 0.1 nM and the negative logarithm of the IC50 (pIC50) was at least 7.00.

On to `CCC(O)(c1ncc(-c2cc(C)cc(Nc3cc(C(F)(F)F)ccn3)n2)s1)[C@H]1CC[C@H](C(=O)O)CC1` (relative stereo) [Example 14-16, trans-4-{1-hydroxy-1-[5-(4-methyl-6-{[4-(trifluoromethyl)pyridin-2-yl]amino}pyridin-2-yl)-1,3-thiazol-2-yl]propyl}cyclohexanecarboxylic acid], for which the negative logarithm of the IC50 (pIC50) was at least 7.00.

For the molecule `CCC(O)(c1ncc(-c2cc(C)cc(Nc3cc(C(F)(F)F)ccn3)n2)s1)[C@H]1CC[C@H](C(=O)O)CC1` (single isomer, unassigned) [Example 14-15, trans-4-{1-hydroxy-1-[5-(4-methyl-6-{[4-(trifluoromethyl)pyridin-2-yl]amino}pyridin-2-yl)-1,3-thiazol-2-yl]propyl}cyclohexanecarboxylic acid], the 50% inhibitory concentration (IC50) worked out at 0.5 nM and the pIC50 was at least 7.00.

Consider `Cc1cc(Nc2cc(C(F)(F)F)ccn2)nc(-c2cnc(C(C)(O)[C@H]3CC[C@H](C(=O)O)CC3)s2)c1` (single isomer, unassigned) [Example 3, trans-4-{(1R or 1S)-1-Hydroxy-1-[5-(4-methyl-6-{[4-(trifluoromethyl)pyridin-2-yl]amino}pyridin-2-yl)-1,3-thiazol-2-yl]ethyl}cyclohexanecarboxylic acid], for which the pIC50 is at least 7.00.

`Cc1cc(Nc2cc(C)c(F)cn2)nc(-c2cnc(C(C)(O)[C@H]3CC[C@H](C(=O)O)CC3)s2)c1` (single isomer, unassigned) [Example 11, trans-4-[(1R or 1S)-1-(5-{6-[(5-fluoro-4-methylpyridine-2-yl)amino]-4-methylpyridine-2-yl}-1,3-thiazol-2-yl)-1-hydroxyethyl]cyclohexanecarboxylic acid]: the IC50 amounted to 0.5 nM and the pIC50 is at least 7.00.

With `Cc1cc(Nc2cc(C(F)(F)F)ccn2)nc(-c2cnc(C(C)(O)C3CCC(C(=O)O)C3)s2)c1` (stereo not drawn) [Example 14-11, 3-{1-hydroxy-1-[5-(4-methyl-6-{[4-(trifluoromethyl)pyridin-2-yl]amino}pyridin-2-yl)-1,3-thiazol-2-yl]ethyl}cyclopentanecarboxylic acid], the pIC50 is at least 7.00.

`Cc1cc(Nc2cc(C(F)(F)F)ccn2)nc(-c2cnc(C(C)(O)C3CCC(C(=O)O)C3)s2)c1` (stereo not drawn) [Example 14-14, 3-{1-hydroxy-1-[5-(4-methyl-6-{[4-(trifluoromethyl)pyridin-2-yl]amino}pyridin-2-yl)-1,3-thiazol-2-yl]ethyl}cyclopentanecarboxylic acid]: the IC50 was 0.5 nM.

As for `Cc1cc(Nc2cc(C(F)(F)F)ccn2)nc(-c2cnc(C(C)(O)[C@H]3CC[C@H](C(=O)O)CC3)s2)c1` (single isomer, unassigned) [Example 4, trans-4-{(1R or 1S)-1-Hydroxy-1-[5-(4-methyl-6-{[4-(trifluoromethyl)pyridin-2-yl]amino}pyridin-2-yl)-1,3-thiazol-2-yl]ethyl}cyclohexanecarboxylic acid], the half-maximal inhibitory concentration (IC50) is 0.5 nM.

As for `Cc1cc(Nc2cc(C)c(F)cn2)nc(-c2cnc(C(C)(O)[C@H]3CC[C@H](C(=O)O)CC3)s2)c1` (single isomer, unassigned) [Example 14-9, trans-4-[1-(5-{6-[(5-fluoro-4-methylpyridin-2-yl)amino]-4-methylpyridin-2-yl}-1,3-thiazol-2-yl)-1-hydroxyethyl]cyclohexanecarboxylic acid], the pIC50 was at least 7.00.

Source of the values: patent US9120785B2, “Pyridyl aminopyridines as Syk inhibitors” (Merck Sharp & Dohme Corp., priority 2011, dated 2015).
